Test system: NK cells
Assay: ex vivo NK cell expansion with irradiated feeder cells
Assay type: cell-based, human
Conditions: IL-2 10, 200 and 1000 U/mL
Text: According to the disclosed methods, NKF cells are irradiated to prevent their expansion and then co-cultured with NK cells. NKF cells are rapidly killed by NK cells during the co-culture, leading to concomitant expansion of the NK cells. […] Without wishing to be bound by theory, the prevention of senescence is believed to be due partially to the mbIL-21 on the feeder cells.
To assess their expansion potential, OCI-AML3 (this line is commercially available from, e.g. DSMZ, Braunschweig, Germany, it is not available at ATCC) and HL-60 cells (also commercially available from, e.g., DSMZ, Braunschweig, Germany) cells were cultured in RPMI 1640 media (Hyclone) supplemented with 10% calf serum (Hyclone), penicillin (100 U/mL), and streptomycin (100 μg/mL). Testing for Mycoplasma contamination was performed on all cell lines at regular intervals using the Mycoplasma Detection Kit-Quick Test (www.bimake.com). Once cultured and collected, the OCI-AML3 or HL-60 cells were irradiated using gamma irradiation (30 Gy) to obtain irradiated feeder cells.
Peripheral blood mononuclear cells (PBMC's) were isolated from peripheral blood of healthy human donors via FICOLL (GE Healthcare) gradient centrifugation. […] Referring to FIG. 2, the OCI-AML3 cell line (unfilled bar) led to a 4.6-fold expansion over a 1-week incubation period as measured by cell counting using a hematocytomer. […]

IL-2: interleukin cytokine used as cytokine support in NK cell culture
effect of IL-2 concentration on proliferative capacity of the feeder cell expansion: not resulting in a statistically significant difference

— US12060577B2, “Compositions for expanding natural killer cells” (CASE WESTERN RESERVE UNIVERSITY, priority 2017, dated 2024)
